# Tested on: livers
# Assay: denitration rate in perfused rat livers relative to isosorbide-5-mononitrate (nitrate-like action)
# Design: species or system rats
# Conditions: rat livers perfused 4 min, equimolar 5×10^-5 M/l; freed NO2 in perfusate; high = fast denitration
structure (smiles),measurement,value
O=[N+]([O-])O[C@H]1CO[C@H]2[C@@H]1OC[C@H]2O[N+](=O)[O-],Vrel (denitration rate in relation to isosorbide-5-mononitrate),"17,5"

# — patent US4863949A, “Aminopropanol derivatives, processes for the preparation thereof, the use thereof and pharmaceutical compositions containing them” (Boehringer Mannheim GmbH, priority 1985, dated 1989)
